Reference: patent publication US11046680B1, “Heteroaryl-substituted triazoles as APJ receptor agonists” (priority 2016, dated 2021)

Chains of the proteins cited; added tags and fusions are not shown. Lines headed by an entry give the natural chain unless they say otherwise; changes in a name come on top.
UniProt P35414: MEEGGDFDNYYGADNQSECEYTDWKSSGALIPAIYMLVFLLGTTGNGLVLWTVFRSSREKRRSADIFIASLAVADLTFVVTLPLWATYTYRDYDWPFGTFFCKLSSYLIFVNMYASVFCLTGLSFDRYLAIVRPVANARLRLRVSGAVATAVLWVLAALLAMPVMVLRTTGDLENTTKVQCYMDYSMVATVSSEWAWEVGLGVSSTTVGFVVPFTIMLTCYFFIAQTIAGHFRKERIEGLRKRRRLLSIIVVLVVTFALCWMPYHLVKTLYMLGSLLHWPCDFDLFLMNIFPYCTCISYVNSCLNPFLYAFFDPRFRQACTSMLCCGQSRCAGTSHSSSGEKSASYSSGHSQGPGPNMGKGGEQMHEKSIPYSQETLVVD

Target: human APJ receptor (Homo sapiens (Human), UniProt P35414)
Format: biochemical
Conditions: [35S]GTPγS binding, CHO membranes expressing human APJ receptor; read-out: Activity hAPJ SPA EC50 IP
Method: The human APJ receptor was cloned by polymerase chain reaction and the gene encoding the receptor was subcloned in pFLAG-CMV™-3 expression vector (Sigma, Saint Louis, Mo. USA) in-house at Amgen. A GTPγS binding assay was performed on membranes prepared from CHO cells stably expressing human APJ receptor. The optimum experimental conditions for the concentrations of GDP, MgCl2, and NaCl in the assay buffer were initially determined. […] Incubation was at RT for 90 min and the microplate was read using a ViewLux™ ultra HTS Microplate Imager (PerkinElmer, Inc.).

Question: How did the EC50 turn out when “(1R,2R)-1-(5-chloro-1,3-thiazol-2-yl)-N-(4-(2,6-dimethoxyphenyl)-5-(5-methyl-1H-pyrazol-3-yl)-4H-1,2,4-triazol-3-yl)-1-methoxy-2-propanesulfonamide or (1S,2S)-1-(5-chloro-1,3-thiazol-2-yl)-N-(4-(2,6-dimethoxyphenyl)-5-(5-methyl-1H-pyrazol-3-yl)-4H-1,2,4-triazol-3-yl)-1-methoxy-2-propanesulfonamide [Example 278.0]” was run?
Answer: 9.5 nM

Question: How did the EC50 turn out when “(1R,2S)-N-(4-(2,6-dimethoxyphenyl)-5-(1-methyl-1H-pyrazol-3-yl)-4H-1,2,4-triazol-3-yl)-1-(5-fluoropyridin-2-yl)-1-methoxypropane-2-sulfonamide or (1S,2R)-N-(4-(2,6-dimethoxyphenyl)-5-(1-methyl-1H-pyrazol-3-yl)-4H-1,2,4-triazol-3-yl)-1-(5-fluoropyridin-2-yl)-1-methoxypropane-2-sulfonamide [Example 27.0]” was run?
Answer: 16 nM

Question: For “(2S)-N-(4-(2,6-dimethoxyphenyl)-5-(1,3-oxazol-2-yl)-4H-1,2,4-triazol-3-yl)-1-(5-fluoro-2-pyrimidinyl)-2-propanesulfonamide or (2R)-N-(4-(2,6-dimethoxyphenyl)-5-(1,3-oxazol-2-yl)-4H-1,2,4-triazol-3-yl)-1-(5-fluoro-2-pyrimidinyl)-2-propanesulfonamide [Example 184.0]”, which EC50 is on record?
Answer: 150 nM

Question: With “(R)-2-(5-Chloropyridin-2-yl)-N-(4-(2,6-dimethoxyphenyl)-5-(1-methyl-1H-pyrazol-3-yl)-4H-1,2,4-triazol-3-yl)-2-hydroxyethanesulfonamide or (S)-2-(5-chloropyridin-2-yl)-N-(4-(2,6-dimethoxyphenyl)-5-(1-methyl-1H-pyrazol-3-yl)-4H-1,2,4-triazol-3-yl)-2-hydroxyethanesulfonamide [Example 367.0]” as the substance, how does the EC50 read?
Answer: 1.1 nM

Question: How did the EC50 turn out when “(R)-N-(4-(2,6-dimethoxyphenyl)-5-(pyridazin-4-yl)-4H-1,2,4-triazol-3-yl)-1-(5-fluoropyrimidin-2-yl)propane-2-sulfonamide or (S)-N-(4-(2,6-dimethoxyphenyl)-5-(pyridazin-4-yl)-4H-1,2,4-triazol-3-yl)-1-(5-fluoropyrimidin-2-yl)propane-2-sulfonamide [Example 51.0]” was run?
Answer: 300 nM
